Measurements reported in patent US9403855B2 (priority 2010, dated 2016).

Biological target: neuraminidase of A/California/7/2009 (pandemic H1N1) (Influenza A virus, UniProt C3W6G3)
Assay: biochemical
Parameters: species or system Influenza virus A/California/7/2009 (pandemic H1N1)

CCC(CC)O[C@@H]1C=C(C(=O)O)C[C@H](N)[C@H]1NC(C)=O [Oseltamivir acid, oseltamivir carboxylic acid, reference compound]
IC50: 1.7 nM
